Earlier results on 1 substance are cited in patent US20190214145A1, “Method and systems for creating and screening patient metabolite profile to diagnose current medical condition, diagnose current treatment state and recommend new treatment regimen” (priority 2018, published 2019).

For this data set the following is noted: vaporizing temperature.

Consider α,β-pinene, for which the BP is 155 °C.
